This excerpt belongs to a sample that is enriched for hits.
GIV-Gai inh: inhibitors of GIV peptide binding to Galpha-i3, primary screen, biochemical, fluorescence polarization, FITC-GIV GBA peptide, rat Galphai3; 90 min; stronger effect = lower value; scaled: aluminum fluoride 0%, vehicle 100%; percent of control (FP), % (test concentration not listed); 0.42% of 210,000 active; AID 1224905, 2016;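 active = replicate mean at 85% of control or lower, very high polarization wells dropped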;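 also: wells of about 15 µL received 100 nL stock; the first replicate is given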
GIV Gai FP conf: GIV-Galpha-i3 inhibition, FP confirmation; hit rate 38% among 580; fluorescence polarization, mP at 100 µM; shares compounds with GIV-Gai inh; FITC-GIV peptide binding to Galphai3, fluorescence polarization; active compounds read low;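 active = inhibition score of 15 or more, meaning 100 minus mean polarization as percent of control over three replicates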;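 note: lower mP means peptide displaced from Galphai3 so more inhibition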
GIV Gai AS conf: confirmation of inhibitors of GIV binding to human Galpha-i3. AlphaScreen counts at 100 µM. AlphaScreen Galphai3-GIV binding, purified proteins, 90 min; active compounds read low. hit rate 39% among 580. shares compounds with GIV-Gai inh;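 active = inhibition score at or above a set limit, where the score is 100 minus the three-replicate mean percent of control signal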
Numbers without * were called inactive.

SMILES	GIV-Gai inh	others
O=C1C=C(O)c2cccc3cccc1c23	83*	GIV Gai FP conf=59;GIV Gai AS conf=15097*
O=C1c2cccc3cccc(c23)C(=O)N1c1ccccc1O	99
Cc1ccc(NC(=O)N2CCCC2c2ccc(Cl)cc2)cc1C (configuration not stated)	108
CCCCNC(=O)c1cccc(-c2nccc(Oc3ccc(OC)cc3)n2)c1	102
COc1cccc(NC(=O)N2CCNCC2)c1	100
N#Cc1c(/N=C/c2ccc(Cl)cc2)oc(-c2ccccc2)c1-c1ccccc1	109
N#Cc1c(/N=C/c2ccc3c(c2)OCO3)oc(-c2ccccc2)c1-c1ccccc1	84*	GIV Gai FP conf=74;GIV Gai AS conf=31432
COc1ccc(/C=N/c2oc(-c3ccccc3)c(-c3ccccc3)c2C#N)cc1	120
CC1=NN(c2cccc(Br)c2)C(=O)/C1=C\c1ccc(-c2cccc([N+](=O)[O-])c2)o1	100
O=C1OC(c2ccccc2)OC(=O)C1=Cc1ccc(-c2cccc(Br)c2)o1 (configuration not stated)	64*	GIV Gai FP conf=63;GIV Gai AS conf=17821*
O=C1NC(=O)C(=Cc2ccc(-c3ccccc3)o2)C(=O)N1	93
CC1CC2CC(=O)CC(C1)C2 (configuration not stated)	106
CCN1C(=O)c2cccc3c(NC(=O)c4ccc(S(=O)(=O)N5CCCC5)cc4)ccc1c23	89	GIV Gai FP conf=79;GIV Gai AS conf=47241
CCN1C(=O)c2cccc3c(NC(=O)c4ccc(S(=O)(=O)N5CCCCC5C)cc4)ccc1c23 (configuration not stated)	118
CCN1C(=O)c2cccc3c(NC(=S)NC(=O)c4ccc(S(=O)(=O)N5CCCC5)cc4)ccc1c23	107
CCOC(=O)N1CCc2c(sc3c2c(=O)n(Cc2ccccc2)c(=O)n3CC(=O)Nc2cccc(OC)c2)C1	103
Cc1ccc(NS(=O)(=O)c2cn(C)cn2)c(C)c1	104
COc1cc(Cl)c(C)cc1Nc1nc2ccccc2nc1NS(=O)(=O)c1ccccc1	158
COc1ccc2nc(NS(=O)(=O)c3ccc(C)cc3)c(Nc3cc(Cl)ccc3OC)nc2c1	230
COc1ccc(Nc2nc3ccccc3nc2NS(=O)(=O)c2ccc(C)cc2)c(OC)c1	39*	GIV Gai FP conf=81;GIV Gai AS conf=33344
CCOC(=O)C1=C(C)NC2=C(C(=O)C(C(=O)OCC)C(c3ccccc3OC)C2)C1c1cccc(OC)c1OC (configuration not stated)	102
CC(C)n1cnc2nc(CSc3ccc(NC(=O)c4ccccc4Cl)cc3)cc(=O)n21	100
COc1ccc(C(=O)N2CCN(S(=O)(=O)c3ccc4c(c3)NC(=O)CO4)CC2)c(OC)c1	105
Cc1c(Nc2nc3nonc3nc2Nc2ccc(F)cc2)c(=O)n(-c2ccccc2)n1C	106
Cc1c(Nc2nc3nonc3nc2Nc2cccc(Cl)c2)c(=O)n(-c2ccccc2)n1C	104
Cc1c(Nc2nc3nonc3nc2Nc2ccccc2F)c(=O)n(-c2ccccc2)n1C	126	GIV Gai FP conf=68;GIV Gai AS conf=44712
O=c1c2c3c(sc2ncn1Cc1ccc(C(F)(F)F)cc1)CCCC3	111
Cc1cc(C)nc(NS(=O)(=O)c2ccc(NC(=S)NC(=O)c3ccc(Cl)cc3Cl)cc2)n1	103
Nc1nnn2c(=O)c3cccc4cccc(c43)c12	88	GIV Gai FP conf=79;GIV Gai AS conf=19934*
O=c1c2cccc3cccc(c32)c2nc3ccc4ccccc4c3n12	112
Cc1nnc(C)n1N1C(=O)c2cccc3cccc(c23)C1=O	97
COc1ccc(NC(=O)c2ccc3c(=O)n(CCc4ccccc4)c(SCC#N)nc3c2)cc1OC	110
O=C(Cc1csc(NC(=O)c2ccccc2)n1)Nc1ccc2c(c1)OCCO2	106
O=C(C1CC(=O)N(c2ccccc2)C1)N1CCN(c2ncnc3c2nnn3-c2cccc(F)c2)CC1 (configuration not stated)	100
O=C1CN(C(=O)CSCc2c(F)cccc2Cl)c2ccccc2N1	90	GIV Gai FP conf=73;GIV Gai AS conf=45374
Cc1ccc(SCC(=O)N2CC(=O)Nc3ccccc32)cc1	111
CCCC(=O)N1CC(=O)Nc2ccccc21	101
CC(C)(C)c1cc2n(n1)CC(C)(C(=O)NC1CCCCC1)N(c1ccc(F)cc1)C2=O (configuration not stated)	100
COc1cc2[nH]c3c(SCC(N)=O)ncnc3c2cc1OC	106
CCOC(=O)c1sc2nc(CC(=O)OC)nc(NCC(OCC)OCC)c2c1C	109
COc1ccc(OCC(O)CNC(=O)C2CCC2)cc1 (configuration not stated)	106
Cn1nc(C(=O)N2CCCCC2)c2c1-c1ccccc1SC2	99
Cc1ccc2c(c1)-c1c(c(C(=O)N3CCN(c4cc(C)ccc4C)CC3)nn1C)CS2	42*	GIV Gai FP conf=36*;GIV Gai AS conf=26353

Four entries drawn at random from the list so far, as already listed:
SMILES	GIV-Gai inh	others
Cc1ccc2c(c1)-c1c(c(C(=O)N3CCN(c4cc(C)ccc4C)CC3)nn1C)CS2	42*	GIV Gai FP conf=36*;GIV Gai AS conf=26353
COc1cc2[nH]c3c(SCC(N)=O)ncnc3c2cc1OC	106
Cc1nnc(C)n1N1C(=O)c2cccc3cccc(c23)C1=O	97
COc1ccc(OCC(O)CNC(=O)C2CCC2)cc1 (configuration not stated)	106
